Earlier results as cited in US20250154607A1, “ISOTHERMAL AMPLIFICATION OF PATHOGENS” (priority 2021, published 2025).

Settings: cited from earlier work

In the case of (2-Hydroxypropyl)-γ-cyclodextrin, the water solubility is listed as 450 mg/mL.
